Assay results: publication PMC8063737, “Mechanistic analysis of actin-binding compounds that affect the kinetics of cardiac myosin–actin interaction” (The Journal of Biological Chemistry, 2021)

How the values were obtained:
[1] = target: T1, rigor PFA.S1 complex (cardiac myosin S1) (Oryctolagus cuniculus, UniProt P68135); assay: Stopped-flow ATP-induced dissociation of actin-S1 complex (ATP binding and isomerization); type: biochemical, bovine
T1 construct: Rabbit skeletal F-actin was prepared as described previously from acetone powder; tissue Pelfreez Biologicals (bovine left ventricular muscle); host or cells: rabbit skeletal muscle (actin); bovine left ventricular muscle (myosin S1)
Description: To determine the equilibrium constant K1 for the formation of the collision complex, A.M.T, the rigor complex of PFA and myosin-S1 complex was formed in one syringe and the Mg.ATP placed in another syringe. […] (Equation 10). The rate constant k+2 was determined from hyperbolic plots of kobs1 versus [MgATP] […] The association equilibrium constant K1 was determined from the ratio of K1k+2/k+2.
Experiments were performed at 25 °C with filtered and degassed solutions. The instrument dead time for single-mix experiments was 1.3 ms. Samples were excited at 365 nm, and pyrene emission fluorescence was acquired with a 2 mm path length and 400 nm long-pass filter. Data analysis was done using the program, ORIGIN (OriginLab Corp).
K1 was determined by mixing the rigor complex of PFA.S1 (A.M) (final concentration of 0.05 μM) with varying final concentrations of MgATP (12.5–1000 μM) in F-Mg buffer in the absence and presence of the compounds, whereby the PFA.compound complex was first made, then mixed with S1, and placed in one syringe, and MgATP solution was placed in the other syringe. The transient curves were fitted to rate constants, kobs, fast and kobs, slow, and with corresponding amplitudes A1 and A2.

[2] = target: T2, pyrene-labeled F-actin (PFA) (Oryctolagus cuniculus, UniProt P68135); assay: Compound binding to pyrene-labeled F-actin, steady-state fluorescence dose response; set-up: species or system rabbit
T2 construct: Rabbit skeletal F-actin was prepared as described previously from acetone powder; from tissue; host or cells: rabbit skeletal muscle (acetone powder)

[3] = target: T3, PFA.C.S1 complex (F-actin with cardiac S1) (Oryctolagus cuniculus, UniProt P68135); assay: Steady-state S1 binding to and ATP-induced dissociation from the PFA.compound complex; type: biochemical, bovine; conditions: 0.7:1 S1:actin, rigor; compound 100 μM except Flu and Dan 50 μM, Mit 10 μM
T3 construct: Rabbit skeletal F-actin was prepared as described previously from acetone powder; tissue Pelfreez Biologicals (bovine left ventricular muscle); host or cells: rabbit skeletal muscle (actin); bovine left ventricular muscle (myosin S1)
Description: We then added Mg.ATP and measured PFA fluorescence (Fig. 8B, peach bars).
Fluorescence spectra of 2 μM PFA in F-Mg buffer were acquired with a Cary spectrophotometer. The sample was placed in a cuvette in a temperature-controlled holder and excited with a Xenon flash lamp at 365 nm with 5 nm slit width. Emission fluorescence intensity was acquired and averaged for 30 s at 407 nm with a 10 nm slit width. […] Fluorescence intensity (F) was corrected for each compound's emission at 407 nm.
Fcalc was determined from normalized fluorescence intensity:(5) Fcalc=(FCompound+F0.7S1)

With `OCCN1CCN(CCCN2c3ccccc3Sc3ccc(C(F)(F)F)cc32)CC1` [Flp] the “increase in K1 versus control” value [1] was at least 2 factor, the “overall category of compound effect” value ([1]; severe if at least one parameter (K1 or k+2) was affected >3-fold) was “severe (severe effects to be >3-fold)” and the “effect on PFA (pyrene) fluorescence, dose-response” value ([2]; 2.5–150 μM compound, 2 μM PFA) was “decreased PFA fluorescence with hyperbolic dependence”. For the same compound, the “effect of MgATP on fluorescence of PFA–compound complexes” value ([2]; 200-500 μM MgATP) was “increased PFA fluorescence in the presence of MgATP” and the “decrease in PFA fluorescence of PFA.compound.S1, experimental versus calculated (Fcalc)” value [3] was “smaller decrease in PFA fluorescence than expected”.
